The text below walks through data of PubChem BioAssay AID1053188 (Broad Institute, 2014).

Only a part is listed here, and it is no random draw. Activity calls are given as the source filed them.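 Rule for the calls: active = mean inhibition of at least 50% with a set share of replicates also reaching that level; inconclusive = no clear call, values can overlap the other calls; inactive = the rest.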

This assay can be described thus: inhibitors of CD40-induced NF-kB signaling, primary screen, BL2 cells, luciferase reporter, single point (AID 1053188).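 Note: 0% = neutral control wells and 100% = IKK inhibitor VII at 50 µM.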 Conditions: CD40L-induced, 4 h, at 10 µM, hits give high values.
On to `COc1ccccc1-c1ccccn1.O=[N+]([O-])c1cc([N+](=O)[O-])c(O)c([N+](=O)[O-])c1`, for which the inhibition is inactive: -12.5%.
`CN1CCCCC1COC(=O)C1(O)c2ccccc2CCc2ccccc21` (stereo not drawn): the inhibition is inactive: 2.43%.
Turning to `CP(=O)(Nc1cccc(Br)c1)Oc1ccccc1` (stereo not drawn), the inhibition is inactive: 8.21%.
The figure for `O=[N+]([O-])c1cc([N+](=O)[O-])c(Nc2ccc(Cl)cc2)c([N+](=O)[O-])c1` is active: 89.2%; for `CN(C)C(=O)c1c([N+](=O)[O-])cc([N+](=O)[O-])cc1[N+](=O)[O-]` it is inactive: 30%; for `O=C(OCCCN1CCCC1)C(O)(c1ccccc1)C1CCCCC1` (stereo not drawn) it is inactive: 17.2%.
Consider `CP(=O)(OCCOc1ccccc1)OCCOc1ccccc1`, for which the inhibition was inactive: 8.99%.
Consider `O=[N+]([O-])c1cc([N+](=O)[O-])c(Nc2ccccn2)c([N+](=O)[O-])c1`, for which the inhibition was inactive: -2.66%.
